# In US8778966B2, “Quinolinone derivatives as PARP and tank inhibitors” (Janssen Pharmaceutica, NV, priority 2007, dated 2014):
# System: HCT116 cells
# Assay: Mitotic arrest assay on HCT116 cells (phospho-histone H3 Ser10)
# Conditions: lowest active dose
# From the text: Phosphorylation of histone H3 is tightly correlated with chromosome condensation during both mitosis and meiosis. The assay is a cellular immunosorbent assay wherein the sole antibody is labelled with a detectable conjugate. The phospho-histone H3 (ser10) antibody detects endogenous levels of histone H3 only when phosphorylated at serine 10. […] In parallel with antibody detection, the nuclei of the cells are stained with Hoechst 33342 for cell-counting. Cells are detected and analysed using the InCell Analyzer 1000 from GE Healthcare. Since both the antibody-detection as well as the Hoechst-staining are in the nucleus, the dual area object intensity algorithm is used for analysing the wells.
# All compounds tested were dissolved in DMSO and further dilutions were made in culture medium. Final DMSO concentrations never exceeded 0.1% (v/v). […]
# A 1/2000 dilution of Hoechtst 33342 (10 mg/ml, supplier: Invitrogen) was made and 100 μl/well was added for at least 30 minutes before acquiring images. The absorbance at dual wavelengths of 360/480 nm was measured using the InCell Analyzer 1000 from GE Healthcare and the results were then analyzed.
# For each experiment, controls (containing no drug) and a blank incubation (containing no cells or drugs) were run in parallel. […] Herein the effects of test compounds are expressed as the lowest dose giving a sigma value of >5 (LAD) (see table F-2).
smiles,measurement,value
CCc1cc2ccc(C(C)(C#N)Cc3cccc([N+](=O)[O-])c3)cc2[nH]c1=O (stereo not shown),Mitotic arrest HCT116 LAD,7 M
